Test results: patent publication US9937166B2 (INFLAMMATORY RESPONSE RESEARCH, INC., priority 2013, dated 2018)

System: Adult Respiratory Distress Syndrome
Details: alone

O=C(O)COCCN1CCN([C@H](c2ccccc2)c2ccc(Cl)cc2)CC1 [levocetirizine]
Believed effect of the single agent in ARDS: not be potent enough by itself to clear a patient's lungs
